One assay has as its system BJAB cells. The settings on record: 10 μM, 12 h.
Assay [1] relates to p-Akt (S473) in BJAB cells. Briefly: Cell-based ELISA for p-Akt (S473), BJAB. Details: species or system human. The procedure:
After the treatment, cells were lysed with ice-cold lysis buffer mentioned above and equivalent aliquots of protein were subjected to a PathScan phospho-Akt1 (Ser473) sandwich ELISA kit (Cell Signaling Technology) following manufacture's instruction. In briefly, whole cell lysate was first half-diluted with sample diluent and added 100 μl into the well incubating overnight at 4°C. After the reaction, wells were washed 4 times with 200 μl wash buffer and then added 100 μl of Akt1 mouse detection antibody incubating 1 h at 37°C. Washed 4 times again and then added 100 μl of anti-mouse IgG HRP-linked antibody incubating 30 min at 37°C. After incubation, washed the well once again and then added 100 μl TMB substrate for color production and finally added 100 μl STOP solution. The results were measured by spectrophotometer at wavelength 450 nm.
A general note: ELISA stands for enzyme-linked immunosorbent assay.

From article PMC4467128 (Oncotarget, 2014) come the findings set out here.

For the compound `O=C(C=Cc1ccc2c(c1)CCN2S(=O)(=O)c1ccccc1)NO` [MPT0E028, 3-(1-Benzenesulfonyl-2,3-dihydro-1H-indol-5-yl)-N-hydroxy-acrylamide], in the assay on BJAB cells, the “Fold change BID” value is on record as −1.78, the “Fold change STAT1” value is given as 1.77, the “Fold change STAT2” value was 1.39 and the “Fold change STAT3” value was determined as 1.39. Further, in the assay on BJAB cells, the “Fold change STAT4” value is 4.05, the “Fold change STAT5A” value was −2.15, the “Fold change STAT5B” value is reported as −1.23 and the “Fold change STAT6” value was −1.71. In the assay on BJAB cells, the “Fold change TP53” value was −2.06. In addition, the “potency on Akt dephosphorylation relative to SAHA” value in assay [1] was “about 6 times”.
